# Data from paper PMC4756533, “Oestrogen receptor β regulates epigenetic patterns at specific genomic loci through interaction with thymine DNA glycosylase” (Epigenetics & Chromatin, 2016).
# Chains of the proteins cited; added tags and fusions are not shown.
# UniProt Q92731, whole entry: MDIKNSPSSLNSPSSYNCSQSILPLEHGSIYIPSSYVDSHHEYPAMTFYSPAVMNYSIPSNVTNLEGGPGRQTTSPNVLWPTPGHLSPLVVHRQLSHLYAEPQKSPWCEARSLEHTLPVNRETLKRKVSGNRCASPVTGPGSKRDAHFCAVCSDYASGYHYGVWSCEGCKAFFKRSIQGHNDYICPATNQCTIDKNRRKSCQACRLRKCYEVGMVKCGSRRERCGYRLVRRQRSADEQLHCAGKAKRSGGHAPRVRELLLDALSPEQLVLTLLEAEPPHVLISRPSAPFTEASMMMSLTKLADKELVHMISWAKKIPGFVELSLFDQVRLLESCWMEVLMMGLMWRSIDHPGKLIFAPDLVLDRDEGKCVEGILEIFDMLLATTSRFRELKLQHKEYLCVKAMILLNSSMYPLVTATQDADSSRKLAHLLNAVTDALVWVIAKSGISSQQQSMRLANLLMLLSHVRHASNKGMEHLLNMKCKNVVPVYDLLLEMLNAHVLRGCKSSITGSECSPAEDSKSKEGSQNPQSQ
# Molecular target: GST-tagged ERβ (oestrogen receptor beta coupled to glutathion-S-transferase) (human, UniProt Q92731)
# Assay: cell-based or functional assay
binder,measurement,value
"recombinant thymine DNA glycosylase (hTDG) (enzyme, human, UniProt Q13569 1-410, looked up) MEAENAGSYSLQQAQAFYTFPFQQLMAEAPNMAVVNEQQMPEEVPAPAPAQEPVQEAPKGRKRKPRTTEPKQPVEPKKPVESKKSGKSAKSKEKQEKITDTFKVKRKVDRFNGVSEAELLTKTLPDILTFNLDIVIIGINPGLMAAYKGHHYPGPGNHFWKCLFMSGLSEVQLNHMDDHTLPGKYGIGFTNMVERTTPGSKDLSSKEFREGGRILVQKLQKYQPRIAVFNGKCIYEIFSKEVFGVKVKNLEFGLQPHKIPDTETLCYVMPSSSARCAQFPRAQDKVHYYIKLKDLRDQLKGIERNMDVQEVQYTFDLQLAQEDAKKMAVKEEKYDPGYEAAYGGAYGENPCSSEPCGFSSNGLIESVELRGESAFSGIPNGQWMTQSFTDQIPSFSNHCGTQEQEEESHA","3x ERE-luciferase reporter activity of ERβ (pSG5-hERβ) in Tdg-/- MEFs co-transfected with 50, 150 and 300 ng TDG plasmid (pSHH25-TDG), in the absence of ligand; increase by TDG",2 fold
same,"3x ERE-luciferase reporter activity of ERβ (pSG5-hERβ) in Tdg-/- MEFs co-transfected with 50, 150 and 300 ng TDG plasmid (pSHH25-TDG), in the presence of 10 nM E2; increase by TDG",2.5 fold
